Source: PubChem BioAssay
SMARCA2 activ = SMARCA2 (BRM) function activators, primary screen, cell-based, luminescence, high throughput. activation, % at 9.1 µM. actives 1% (n = 370,000). AID 652017, 2013. MG213 cells, MMTV-luciferase reporter, dexamethasone, overnight; in the data active means activation above about 7.8%;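 further: 0% = vehicle wells and 100% = reference activator wells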
ERp5 inh = inhibitors of ERp5-driven insulin aggregation, primary screen, biochemical, turbidity, absorbance 650 nm, single point; Protein disulfide-isomerase A6 (Homo sapiens), Q15084; 90 min; inhibition, % at 9.99 µM; actives 0.05% (n = 350,000); AID 651711, 2012;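 active means mean replicate inhibition above about 25%, with every replicate also reaching it, limit read from the data, passing the limit was not always enough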
Rev-erbA mod = modulators of Rev-erb alpha DNA binding, primary screen, biochemical, FITC-DNA, fluorescence polarization, uHTS | activity, % at 10 µM | Rev-erbα–FITC-DNA binding, 90 min | actives 0.79% (n = 370,000);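 active means activity above about 14%, limit read from the data; passing the limit was not always enough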;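 further: 0% = DMSO wells with 35 nM protein and 100% = DMSO wells with 750 nM protein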
PDI inh = inhibitors of human PDI, primary screen, biochemical, turbidity, single point, plate reader; PDI insulin aggregation turbidity, A650, 90 min; Protein disulfide-isomerase (Homo sapiens), P07237; actives 0.052% (n = 350,000); inhibition, % at 10 µM;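 active means mean inhibition across replicates of 30% or more, whatever share of single replicates reach that level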
GSIS activator = GLuc luminescence reporter in INS-1E cells, primary screen for activators of glucose-dependent secretion of insulin; INS-1E GLuc reporter insulin secretion, 2-3 h; activation, % at 16.6 µM; actives 0.61% (n = 370,000);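 active means lowest replicate activation of at least 40%, so every replicate reaches that level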;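 further: 0% = median of neutral control wells and 100% = median of IBMX positive control wells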
UUG fidelity = yeast start codon fidelity modulation | S. cerevisiae UUG-firefly luciferase reporter, luminescence/redox ratio | activity score, % at 18.7 µM | hit rate 0.13% among 350,000 | AID 602363;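 active means replicate mean at a twofold rise or more, about +100% in these data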;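 further: firefly luciferase made from a UUG start codon reports start codon fidelity; reporter light over untreated wells divided by growth signal over untreated wells; some hits fall short of that in this replicate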
* hit, by the source's call; ! = not confirmed by another sample. This is a sample that favours compounds with a hit; in the whole collection about 2.1% have one here.

Start of the listing, in advance, three compounds:
How did O=C(C[C@@H]1C[C@H]2c3cc(NC(=O)Nc4ccccc4F)ccc3O[C@H]2[C@H](CO)O1)NCC(F)(F)F do in these assays?
SMARCA2 activ: -2; ERp5 inh: 84*!; Rev-erbA mod: 0; PDI inh: -5; GSIS activator: 5; UUG fidelity: -7

Results for CCCNC(=O)C[C@@H]1C[C@H]2c3cc(NC(=O)CC4CC4)ccc3O[C@H]2[C@@H](CO)O1 ?
ERp5 inh: -2; GSIS activator: -2; UUG fidelity: -9

Results for CC(C)NC(=O)N(C)C[C@@H]1Oc2c(NC(=O)c3ccc(-c4nccs4)cc3)cccc2C(=O)N([C@H](C)CO)C[C@@H]1C ?
ERp5 inh: -17; GSIS activator: 6; UUG fidelity: 3

The listing, previewed entries included:
How did O=C(C[C@@H]1C[C@H]2c3cc(NC(=O)Nc4ccccc4F)ccc3O[C@H]2[C@H](CO)O1)NCC(F)(F)F do in these assays?
SMARCA2 activ: -2; ERp5 inh: 84*!; Rev-erbA mod: 0; PDI inh: -5; GSIS activator: 5; UUG fidelity: -7

Results for CCCNC(=O)C[C@@H]1C[C@H]2c3cc(NC(=O)CC4CC4)ccc3O[C@H]2[C@@H](CO)O1 ?
ERp5 inh: -2; GSIS activator: -2; UUG fidelity: -9

Results for CC(C)NC(=O)N(C)C[C@@H]1Oc2c(NC(=O)c3ccc(-c4nccs4)cc3)cccc2C(=O)N([C@H](C)CO)C[C@@H]1C ?
ERp5 inh: -17; GSIS activator: 6; UUG fidelity: 3

What do the screens show for `Cc1ccc(S(=O)(=O)N[C@H]2CC[C@@H](CCn3cc(C4CCCC4)nn3)O[C@@H]2CO)cc1`?
ERp5 inh: -2; GSIS activator: 5; UUG fidelity: 0

Results for COc1ccc(C(=O)N/N=C/c2c(C)[nH]c(=O)[nH]c2=O)cc1 ?
SMARCA2 activ: 0; ERp5 inh: -1; Rev-erbA mod: 0; PDI inh: -2; GSIS activator: 1; UUG fidelity: -10

What do the screens show for `COc1ccc(CO/N=C/c2c(C)[nH]c(=O)[nH]c2=O)cc1`?
SMARCA2 activ: -1; Rev-erbA mod: -5; PDI inh: -5; GSIS activator: 44*; UUG fidelity: -14

Results for O=C(C[C@@H]1CC[C@H]2[C@@H](COC[C@@H](O)CN2Cc2cccc(C(F)(F)F)c2)O1)NCCc1ccccc1 ?
ERp5 inh: -21; GSIS activator: -14; UUG fidelity: 9

Results for Cc1cc(/C=C2/SC(=O)N(CC(=O)N3CCOCC3)C2=O)c(C)n1-c1ccccc1F ?
SMARCA2 activ: 4; ERp5 inh: 3; Rev-erbA mod: -2; PDI inh: -4; GSIS activator: 52*

What do the screens show for `COc1cccc(-c2cccc(-c3nc(C(=O)Nc4ccc(-c5ccccc5)cc4)cc4c3[C@@H](CCO)N(S(=O)C(C)(C)C)C4)c2)c1` (stereo partly drawn)?
ERp5 inh: -1; GSIS activator: 6

How did CC(C)(C)S(=O)N1Cc2cc(C(=O)Nc3ccc(-c4ccccc4)cc3)nc(-c3cccc(-c4cccc(F)c4)c3)c2[C@@H]1CCO (stereo partly drawn) do in these assays?
ERp5 inh: 1; GSIS activator: 190*

How did CN(C)CC(=O)N1CCCCN2[C@@H](CO)[C@@H](c3ccc(/C=C/c4ccccc4)cc3)[C@@H]2C1 do in these assays?
ERp5 inh: 2; GSIS activator: 7; UUG fidelity: 44

What do the screens show for `COc1cc2cnc(CCCC#N)cc2cc1OC`?
SMARCA2 activ: -1; ERp5 inh: 1; Rev-erbA mod: -9; PDI inh: 1; UUG fidelity: -3

How did N#CCCCc1cc2ccccc2cn1 do in these assays?
SMARCA2 activ: 1; ERp5 inh: -2; Rev-erbA mod: 0; PDI inh: -10; GSIS activator: 51*; UUG fidelity: -5

Results for CCOC(=O)c1cnn(-c2nc(-c3ccccc3)cs2)c1C(F)(F)F ?
SMARCA2 activ: 1; Rev-erbA mod: 11; GSIS activator: -25

What do the screens show for `COC(=O)c1cnn(-c2nc(-c3ccccc3)cs2)c1N`?
SMARCA2 activ: 0; ERp5 inh: 0; Rev-erbA mod: -1; PDI inh: 11; GSIS activator: 45*; UUG fidelity: -8

How did O=C(c1ccccc1)N1CC2(C1)[C@H](c1ccccc1)[C@@H](CO)N2Cc1cccnc1 do in these assays?
ERp5 inh: 12; GSIS activator: 11

What do the screens show for `CCN(CC)C(=O)c1ccccc1NS(=O)(=O)c1ccc(C)cc1`?
SMARCA2 activ: -2; Rev-erbA mod: 2; PDI inh: -1; GSIS activator: 43*; UUG fidelity: 13

Results for COc1ccccc1OC(=O)CCN1c2ccccc2Sc2ccccc21 ?
SMARCA2 activ: -2; Rev-erbA mod: 7; PDI inh: 4; GSIS activator: -31

What do the screens show for `O=C(O)CCN1c2ccccc2Sc2ccccc21`?
SMARCA2 activ: 0; ERp5 inh: 2; Rev-erbA mod: -7; PDI inh: -3; GSIS activator: 69*; UUG fidelity: -14

How did Cc1cc(=O)[nH]c2c1c(C)nn2C1CCCC1 do in these assays?
SMARCA2 activ: 0; Rev-erbA mod: 2; PDI inh: 2; GSIS activator: 53*; UUG fidelity: 14

What do the screens show for `CN(C(=O)[C@H]1O[C@@H](n2cnc(C(N)=O)n2)[C@H](O)[C@@H]1O)c1ccccc1`?
SMARCA2 activ: 1; ERp5 inh: 4; Rev-erbA mod: -6; GSIS activator: 187*

How did Cc1ccc(NC(=O)[C@@H](Cc2ccccc2)NC(=O)[C@H]2O[C@@H](n3ccc(=O)[nH]c3=O)[C@H](O)[C@@H]2O)cc1C do in these assays?
SMARCA2 activ: 2; ERp5 inh: 4; Rev-erbA mod: -3; GSIS activator: 51*

What do the screens show for `NC(=O)c1ncn([C@@H]2O[C@H](C(=O)N[C@H](Cc3c[nH]c4ccccc34)C(=O)O)[C@@H](O)[C@H]2O)n1`?
SMARCA2 activ: -1; ERp5 inh: -2; Rev-erbA mod: 8

Results for NC(=O)c1ncn([C@@H]2O[C@H](C(=O)N[C@H](Cc3ccccc3)C(=O)O)[C@@H](O)[C@H]2O)n1 ?
SMARCA2 activ: -3; ERp5 inh: 8; Rev-erbA mod: 6; GSIS activator: 44*

Results for Cc1nccn1-c1ccc(NC(=O)[C@@H](Cc2ccccc2)NC(=O)[C@H]2O[C@@H](n3ccc(=O)[nH]c3=O)[C@H](O)[C@@H]2O)cc1 ?
SMARCA2 activ: -3; ERp5 inh: 2; Rev-erbA mod: -2; GSIS activator: 9

Results for CNC[C@@H]1Oc2cc(C#Cc3ccccn3)ccc2S(=O)(=O)N([C@H](C)CO)C[C@H]1C ?
ERp5 inh: -3; GSIS activator: -2; UUG fidelity: 11

What do the screens show for `C[C@H](CO)N1C[C@H](C)[C@H](CN(C)C(=O)Nc2ccc(C(F)(F)F)cc2)Oc2ccc(NS(=O)(=O)c3cccs3)cc2CC1=O`?
ERp5 inh: 16; GSIS activator: -1; UUG fidelity: -20

Results for C[C@@H]1CN([C@H](C)CO)C(=O)Cc2cc(NC(=O)CCCN(C)C)ccc2O[C@H]1CN(C)Cc1ccc(-c2ccccc2)cc1 ?
ERp5 inh: 0; GSIS activator: 72*; UUG fidelity: -2
